Tests used:
rat α9α10 nAChR = rat α9α10 nAChR (Rattus norvegicus, UniProt P43144+Q9JLB5); assay type: cell-based
human α9α10 nAChR = human α9α10 nAChR (Homo sapiens, UniProt Q9GZZ6+Q9UGM1); assay type: cell-based

Amino acid sequences for entries named in this document (tags omitted). Residues count along the entry.
UniProt P43144, 26-479 limits assumed: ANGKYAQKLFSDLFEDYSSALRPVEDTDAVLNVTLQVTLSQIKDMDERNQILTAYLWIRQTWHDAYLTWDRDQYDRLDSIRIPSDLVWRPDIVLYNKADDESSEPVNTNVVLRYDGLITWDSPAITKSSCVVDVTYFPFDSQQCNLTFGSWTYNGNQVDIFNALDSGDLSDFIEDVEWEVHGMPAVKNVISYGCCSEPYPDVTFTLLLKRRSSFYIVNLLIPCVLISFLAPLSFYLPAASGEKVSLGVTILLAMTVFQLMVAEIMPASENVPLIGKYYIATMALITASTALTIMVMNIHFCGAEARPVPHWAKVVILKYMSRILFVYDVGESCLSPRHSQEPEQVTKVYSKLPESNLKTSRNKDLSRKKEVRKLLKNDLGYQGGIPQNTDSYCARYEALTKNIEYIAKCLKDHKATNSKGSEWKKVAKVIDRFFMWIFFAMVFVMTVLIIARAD
UniProt Q9JLB5, 25-447 limits assumed: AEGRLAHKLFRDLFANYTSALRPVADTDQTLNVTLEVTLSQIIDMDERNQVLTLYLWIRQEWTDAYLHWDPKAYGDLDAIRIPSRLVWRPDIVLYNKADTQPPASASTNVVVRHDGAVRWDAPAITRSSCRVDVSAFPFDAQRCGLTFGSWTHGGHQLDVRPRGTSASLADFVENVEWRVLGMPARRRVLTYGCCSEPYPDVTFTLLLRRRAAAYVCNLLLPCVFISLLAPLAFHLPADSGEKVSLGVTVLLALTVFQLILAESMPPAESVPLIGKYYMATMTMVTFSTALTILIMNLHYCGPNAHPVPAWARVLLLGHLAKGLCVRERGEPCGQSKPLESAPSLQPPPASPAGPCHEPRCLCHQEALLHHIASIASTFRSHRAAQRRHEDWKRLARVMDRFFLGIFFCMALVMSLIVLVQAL
UniProt Q9GZZ6, 25-450 limits assumed: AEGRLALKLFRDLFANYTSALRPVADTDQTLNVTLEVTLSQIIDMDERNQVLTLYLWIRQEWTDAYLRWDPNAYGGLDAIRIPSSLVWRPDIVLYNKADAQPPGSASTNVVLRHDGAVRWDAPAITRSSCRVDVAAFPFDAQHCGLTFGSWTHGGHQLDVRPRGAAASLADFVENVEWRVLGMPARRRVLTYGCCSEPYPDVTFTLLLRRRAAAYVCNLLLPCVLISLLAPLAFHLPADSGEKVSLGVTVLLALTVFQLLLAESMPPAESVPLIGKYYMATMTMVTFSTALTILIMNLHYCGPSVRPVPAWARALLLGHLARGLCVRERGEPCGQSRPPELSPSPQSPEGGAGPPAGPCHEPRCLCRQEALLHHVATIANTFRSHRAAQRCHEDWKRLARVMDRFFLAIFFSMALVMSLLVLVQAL
UniProt Q9UGM1, 26-479 limits assumed: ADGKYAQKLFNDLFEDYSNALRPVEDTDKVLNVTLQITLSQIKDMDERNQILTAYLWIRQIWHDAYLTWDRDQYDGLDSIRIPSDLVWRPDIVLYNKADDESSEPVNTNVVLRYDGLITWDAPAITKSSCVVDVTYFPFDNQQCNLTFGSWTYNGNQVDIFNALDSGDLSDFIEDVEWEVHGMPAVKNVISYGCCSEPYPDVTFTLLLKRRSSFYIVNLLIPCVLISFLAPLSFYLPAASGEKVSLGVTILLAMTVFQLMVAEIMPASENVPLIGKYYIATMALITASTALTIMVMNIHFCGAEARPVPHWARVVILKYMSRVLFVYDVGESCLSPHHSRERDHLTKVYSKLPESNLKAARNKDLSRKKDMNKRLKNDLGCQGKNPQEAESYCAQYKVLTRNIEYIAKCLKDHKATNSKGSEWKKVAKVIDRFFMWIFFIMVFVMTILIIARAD

## N=C(N)NCCC[C@H](NC(=O)[C@@H]1CSSC[C@@H]2NC(=O)[C@@H](NC(=O)CN)CSSC[C@H](NC(=O)[C@H](CCCNC(=N)N)NC(=O)[C@@H]3CCCN3C(=O)[C@H](CC(=O)O)NC(=O)[C@H](CO)NC2=O)C(=O)N[C@@H](CCCNC(=N)N)C(=O)N[C@@H](Cc2ccc(O)c(I)c2)C(=O)N[C@@H](CCCNC(=N)N)C(=O)N1)C(=O)O [SEQ ID NO:21, GCCSDPRCRX3RCR]
Rat α9α10 nAChR
  change in potency on the rat receptor: small increase in potency
Human α9α10 nAChR
  Fold improvement: 4.6 fold
  fold increase in potency on the human receptor: 4-8 fold

From patent US10633417B2 (priority 2013, dated 2020)
